Values quoted from earlier work in publication PMC6186450 (Pharmaceutical research, 2018).

Settings: cited from earlier work

Substance: PEG2-IFN: 40 kDa branched polyethylene glycol-conjugated interferon α-2a
- reduction of activity by PEGylation: 14 fold
